Measured values published in US9493537.

Amino acid sequences for entries named in this document (tags omitted). A change or cut given only in a name is not applied to a line headed by its entry.
UniProt Q01727: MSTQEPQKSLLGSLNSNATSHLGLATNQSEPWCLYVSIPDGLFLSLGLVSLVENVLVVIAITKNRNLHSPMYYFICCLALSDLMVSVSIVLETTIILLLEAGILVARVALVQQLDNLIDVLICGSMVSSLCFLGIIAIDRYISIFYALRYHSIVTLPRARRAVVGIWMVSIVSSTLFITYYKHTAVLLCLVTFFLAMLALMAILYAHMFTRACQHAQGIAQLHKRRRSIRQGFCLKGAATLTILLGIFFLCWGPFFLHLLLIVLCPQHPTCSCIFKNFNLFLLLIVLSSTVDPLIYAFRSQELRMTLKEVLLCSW

Molecular target: melanocortin-1 (MC1) receptor on B16/F1 murine melanoma cells (mouse (B16/F1 murine melanoma cells)) (UniProt Q01727)
Test: cell-based or functional assay

111In-DOTA-Nle-CycMSHhex (peptide)
tumor uptake in B16/F1 melanoma-bearing C57 mice at 2 h with co-injection of 10 µg of non-radiolabeled NDP-MSH, as percent of the uptake without co-injection: 4.2%
